# What was measured:
# [1] = Maximal tolerated dosage in healthy mice, single administration; settings: versus free Doxorubicin
# Description: In the therapy of a cancer patient, the dosage of administration and the number of administration were very important. However, bound by toxic side effects of chemotherapeutic drugs, the therapy of cancer usually became administration in a small amount at a high frequency.
# HT-29 cells = test: Laser confocal study of HFn-Dox entering the cell; format: cell-based, human; settings: 1 μM Cy 5.5-HFn-Dox, 1 minute to 72 hours
# Description: The principle of chemotherapeutic drug Doxorubicin molecules killing tumor was that Doxorubicin molecules were embedded in the double helix of DNA after entering the cell nucleus to inhibit the replication and transcription of DNA, such that tumor cells were induced to apoptosis. That is, the prerequisite for Doxorubicin exerting an effect of killing tumor was being capable of entering the cell nucleus of a tumor cell. In order to study whether HFn-Dox can release Doxorubicin loaded therein and pass it into the cell nucleus in the process and after entering a cell, we carried out observation using fluorescence-labeled HFn-Dox and a laser confocal means.
# A specific example was as follows. HFn-Dox nanoparticles were first subjected to Cy 5.5 modification. HT-29 cells growing on glass coverslips were cultured for 12 hour, and were incubated with 1 μM Cy 5.5-HFn-Dox in an incubator for 1 minute, 24 hours, 48 hours, and 72 hours respectively. After washing with PBS for three times, 4% paraformaldehyde was used for fixing for 5 minutes. 0.1% Triton X-100 was then used to permeabilize cells. After washing with PBS again, cells were blocked with 5% sheep serum at room temperature for 30 minutes. […] The protein shell in the HFn-Dox nanoparticle was labeled with Cy 5.5, a marker molecule LAMP-1 of the lysosome was labeled with Alexa-488; and fluorescence signal of Dox itself was observed. […]
# HT-29 implanted tumor = test: Anti-tumor pharmacodynamics in nude mice bearing HT-29 implanted tumor; settings: single tail vein dose; free Dox 5 mg/kg, Doxil 20 mg/kg
substance,measurement,setting,value
"HFn: recombinant full heavy-chain human ferritin (H-ferritin), empty protein shell nanocarrier expressed in E. coli",increase of tolerated dosage of mice to Dox,[1],4 times
same,intracellular fate of the nanoparticle / protein shell,HT-29 cells,"transported into an endosome, and finally passed into a lysosome"
same,average survival time of tumor-bearing mice,HT-29 implanted tumor,18 days
